A short description of the data set: behavioral observations / gross CNS effects in mice. In kind it is in vivo, male mice (Swiss-Webster). The following applies: 100 mg/kg ip, after injection of test compounds. How it is done:
The mice were divided in groups of 10, keeping the group weights equal as far as possible. The quinazolones shown in Table 2 as well as methaqualone were injected ip (100 mg/kg) in a 5% aqueous suspension of gum acacia to one group of 10 animals. One hour after the administration of quinazolones, the mice were injected with pentylenetetrazol (90 mg/kg) sc under the loose skin of the back. […] The mice were then observed for the following 60 minutes for the occurrence of seizures. One episode of clonic spasm which persisted for a minimum period of 5 seconds was considered a threshold convulsion. Transient intermittent jerks or tremulousness were not taken into account. Animals devoid of even a threshold convulsion during the period of 60 minutes were considered protected. […] Mortality was recorded 24 hours after the pentylenetetrazol injection. After the injection of test compounds, behavioral observations were also made. […] 2 and compound no.

`Cc1ccccc1-n1c(C)nc2ccccc2c1=O` [Compound 1, 2-methyl-3-o-tolyl-4-quinazolone]: the “Behavioral Observations” value is listed as “deep hynosis”.

The values are drawn from patent US5283247A, “Anticonvulsant substituted quinazolones” (Research Corporation Technologies, Inc., priority 1992, dated 1994).
